This is an account of results in paper PMC2818863 (Bioorganic & medicinal chemistry, 2009).

By UniProt entry, the sequences of proteins in these tests, tags left out. Residues count along the entry.
UniProt P05187, 23-506 limits assumed: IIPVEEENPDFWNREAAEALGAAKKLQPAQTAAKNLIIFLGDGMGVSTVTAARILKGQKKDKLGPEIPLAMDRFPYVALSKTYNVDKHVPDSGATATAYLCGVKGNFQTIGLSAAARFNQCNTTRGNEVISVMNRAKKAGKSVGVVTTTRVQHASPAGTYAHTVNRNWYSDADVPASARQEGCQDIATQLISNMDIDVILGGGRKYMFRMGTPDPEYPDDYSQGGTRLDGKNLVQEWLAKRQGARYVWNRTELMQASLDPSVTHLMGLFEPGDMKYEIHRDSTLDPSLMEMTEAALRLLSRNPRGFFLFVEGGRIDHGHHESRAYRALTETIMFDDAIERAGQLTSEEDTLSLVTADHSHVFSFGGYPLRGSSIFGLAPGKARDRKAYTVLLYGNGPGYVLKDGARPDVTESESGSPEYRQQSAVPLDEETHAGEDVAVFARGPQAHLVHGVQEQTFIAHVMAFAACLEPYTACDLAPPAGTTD

For one experiment, the target named is T1, TNAP (Homo sapiens, UniProt P05186).
T1 sequence (P05186 18-502 limits assumed): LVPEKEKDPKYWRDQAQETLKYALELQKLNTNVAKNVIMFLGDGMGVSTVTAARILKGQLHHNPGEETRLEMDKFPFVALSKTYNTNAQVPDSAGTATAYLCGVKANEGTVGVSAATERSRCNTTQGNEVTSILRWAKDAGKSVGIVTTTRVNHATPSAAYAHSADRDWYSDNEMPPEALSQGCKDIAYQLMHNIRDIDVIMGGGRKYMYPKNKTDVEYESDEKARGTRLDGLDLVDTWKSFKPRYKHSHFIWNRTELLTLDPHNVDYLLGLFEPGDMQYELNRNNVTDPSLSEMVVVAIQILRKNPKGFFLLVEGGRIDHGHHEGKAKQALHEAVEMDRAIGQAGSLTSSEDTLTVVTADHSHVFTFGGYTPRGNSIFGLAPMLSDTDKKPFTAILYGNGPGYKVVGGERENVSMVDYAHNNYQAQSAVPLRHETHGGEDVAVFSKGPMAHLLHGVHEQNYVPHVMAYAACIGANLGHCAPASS
The experiment in a line: TNAP luminescent assay. Type of experiment: biochemical. To be noted: ratio IC50 TNAP / IC50 PLAP.

The target of the next experiment is PLAP (Homo sapiens, UniProt P05187). The experiment in a line: PLAP luminescent assay. The class given is biochemical. To be noted: PLAP potency (IC50), mean ± SD of three experiments; CDP-star 85 μM.

For `O=C(Cn1ccnc1-c1ccccc1)c1ccc(O)c(O)c1` [Compound 14], on TNAP, the “Selectivity (TNAP/PLAP)” value is over 6 fold. A word on the IC50: it is the concentration that inhibits the measured activity by half. Read a low IC50 as inhibition by little substance. Turning to `O=C(Cn1cnc2ccccc21)c1ccc(O)c(O)c1` [Compound 17], it took 800 ± 50 nM to reach half-maximal inhibition against PLAP (IC50).

At PLAP, `Cc1nc2ccccc2n1CC(=O)c1ccc(O)c(O)c1` [Compound 20] came in with an IC50 of 1200 ± 100 nM. `Cn1c(SCC(=O)c2ccc(O)c(O)c2)nnc1-c1ccccc1` [Compound 27] registered an IC50 against PLAP of 6700 nM. This IC50 is about 5.6-fold higher than that of the compound before. `COc1ccc2c(c1OC)C(=O)OC2CC(=O)c1ccc(O)c(O)c1` (centres unmarked) [Compound 33] had an IC50 against PLAP of 3000 ± 200 nM.
